Test results: BindingDB's records for doi:10.1038/nchembio.2134 (University of Pennsylvania, 2016)

Legend:
[1] = biological target: T1, Histone deacetylase 6 [60-420] (Danio rerio, UniProt F8W4B7); experiment: HDAC6 fluorescence anisotropy assay; conditions: 25 °C
T1 construct: 60-420
T1 sequence (F8W4B7 whole entry): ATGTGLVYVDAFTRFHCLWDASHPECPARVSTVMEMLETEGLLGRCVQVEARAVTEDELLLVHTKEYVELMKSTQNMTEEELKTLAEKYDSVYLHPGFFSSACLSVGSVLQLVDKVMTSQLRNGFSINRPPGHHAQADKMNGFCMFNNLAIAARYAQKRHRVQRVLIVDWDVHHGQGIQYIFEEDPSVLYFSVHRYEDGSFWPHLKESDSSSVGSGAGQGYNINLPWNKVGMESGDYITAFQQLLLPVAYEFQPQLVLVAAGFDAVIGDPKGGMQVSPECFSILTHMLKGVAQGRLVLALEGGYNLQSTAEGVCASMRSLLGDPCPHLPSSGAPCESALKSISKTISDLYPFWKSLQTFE

[2] = biological target: T2, Histone deacetylase 6 [440-798] (Danio rerio, UniProt F8W4B7); experiment: HDAC6 fluorescence anisotropy assay; conditions: 25 °C
T2 construct: 440-798
T2 sequence (F8W4B7 whole entry): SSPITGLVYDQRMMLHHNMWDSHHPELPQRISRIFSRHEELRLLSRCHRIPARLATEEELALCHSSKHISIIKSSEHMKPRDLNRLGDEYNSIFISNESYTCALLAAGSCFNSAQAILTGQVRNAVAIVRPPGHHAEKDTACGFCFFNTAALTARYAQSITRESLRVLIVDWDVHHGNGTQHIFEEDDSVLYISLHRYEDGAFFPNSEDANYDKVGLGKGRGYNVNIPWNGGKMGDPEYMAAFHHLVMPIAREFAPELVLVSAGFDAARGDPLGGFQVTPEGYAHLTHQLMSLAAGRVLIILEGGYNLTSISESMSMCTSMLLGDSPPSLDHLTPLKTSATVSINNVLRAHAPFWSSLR

- IC50 [1]: 7 nM
- Ki [1]: 4.8 nM
- IC50 [2]: 1.4 nM
- Ki [2]: 0.8 nM
SMILES: C/C(=C\C(C)/C=C/C(=O)NO)C(=O)c1ccc(N(C)C)cc1 (centres undefined) [TSA]
